{"source": "patent EP0260829A2", "about": "(priority 1986, dated 1988)", "tested_on": "anti-PCP antibody from ATCC HB 9198", "experiment": "competitive inhibition enzyme immunoassay (CIEIA)", "parameters": "species or system rat", "conditions": "read-out: Molar IC50; molar concentration of chemical that inhibits 50% of the binding of anti-PCP to the coated plate; NI = Not Inhibitory", "note": "This is a selection: effects in other tests are not listed, and their absence says nothing."}
{"smiles": "Cc1ccc([N+](=O)[O-])cc1[N+](=O)[O-]", "values": [{"measurement": "IC50", "result": "> 1000", "unit": "µM"}]}
{"smiles": "Cc1cccc([N+](=O)[O-])c1[N+](=O)[O-]", "values": [{"measurement": "IC50", "result": "> 1000", "unit": "µM"}]}
